Source: US20170009272A1, “IN-SILICO BASED TECHNIQUES IN THE IDENTIFICATION OF POTENT ß-GLUCORONIDASE INHIBITORS” (priority 2015, published 2017)

Amino acid sequences for entries named in this document (tags omitted).
UniProt P05804, whole entry: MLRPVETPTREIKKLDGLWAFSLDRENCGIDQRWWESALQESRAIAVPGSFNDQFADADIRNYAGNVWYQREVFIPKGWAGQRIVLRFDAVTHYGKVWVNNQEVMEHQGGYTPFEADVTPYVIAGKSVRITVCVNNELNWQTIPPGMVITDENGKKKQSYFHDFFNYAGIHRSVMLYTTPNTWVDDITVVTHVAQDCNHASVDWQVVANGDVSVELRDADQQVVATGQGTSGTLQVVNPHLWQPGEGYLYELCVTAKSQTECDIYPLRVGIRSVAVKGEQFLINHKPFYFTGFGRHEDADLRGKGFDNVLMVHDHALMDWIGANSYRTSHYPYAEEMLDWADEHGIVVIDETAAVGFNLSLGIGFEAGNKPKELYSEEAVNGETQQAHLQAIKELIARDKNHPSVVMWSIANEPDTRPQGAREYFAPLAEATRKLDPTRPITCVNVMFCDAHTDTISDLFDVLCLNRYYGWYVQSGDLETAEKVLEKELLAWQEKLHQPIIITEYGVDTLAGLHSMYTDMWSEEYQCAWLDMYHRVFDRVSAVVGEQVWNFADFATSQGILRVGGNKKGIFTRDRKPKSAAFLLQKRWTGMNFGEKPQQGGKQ

Columns and labels:
β-glucoronidase = β-glucoronidase (Escherichia coli, UniProt P05804); experiment: β-Glucuronidase inhibition assay (spectrophotometric, p-nitrophenyl-β-D-glucuronide substrate)
Method: β-Glucuronidase inhibition assay protocol: Inhibitory activity of β-Glucuronidase was determined with the help of spectrophotometric method by measuring the absorbance at 405 nm of p-nitro phenol formed from the substrate (p-nitro phenyl-β-D-glucuronide, N1627-250 mg, Sigma Aldrich). The total reaction volume was 250 μL. The compound dissolved in DMSO (100%), which becomes 2% in the ultimate assay (250 μL) and the similar conditions were used for standard (D-saccharin acid 1,4-lactone, Sigma Aldrich). The reaction mixture contained 185 μL of 0.1 M acetate buffer, 5 μL of test compound solution, 10 μL of (1U) enzyme solution (G7396-25KU, Sigma Aldrich) was incubated at 37° C. for 30 min. The plates were read on a multiplate reader (SpectraMax plus 384) at 405 nm after the addition of 50 μL of 0.4 mM p-nitrophenyl-β-D-glucuronide. All assays were performed in triplicate. IC50 Values were calculated by using EZ-Fit software (Perrella Scientific Inc., Amherst, Mass., U.S.A.). These values are the mean of three independent readings.

[1] = tested on: 3T3 (mouse fibroblast) cells
Method: Cytotoxicity assay Protocol: Cytotoxic activity of compounds was evaluated in 96-well flat-bottomed micro plates by using the standard MTT (3-[4,5-dimethylthiazole-2-yl]-2,5-diphenyl-tetrazolium bromide) colorimetric assay (15). For this purpose, 3T3 (mouse fibroblast) cells were cultured in Dulbecco's Modified Eagle Medium, supplemented with 5% of fetal bovine serum (FBS), 100 IU/ml of penicillin and 100 μg/ml of streptomycin in 75 cm^2 flasks, and kept in 5% CO2 incubator at 37° C. Exponentially growing cells were harvested, counted with haemocytometer and diluted with a particular medium. Cell culture with the concentration of 5×10^4 cells/ml was prepared and introduced (100 μL/well) into 96-well plates.
After overnight incubation, medium was removed and 200 μL of fresh medium was added with different concentrations of compounds (1-30 μM). After 48 hrs, 200 ptL MTT (0.5 mg/ml) was added to each well and incubated further for 4 hrs. Subsequently, 100 μLof DMSO was added to each well. The extent of MTT reduction to formazan within cells was calculated by measuring the absorbance at 540 nm, using a micro plate reader (Spectra Max plus, Molecular Devices, Calif., USA). The cytotoxicity was recorded as concentration causing 50% growth inhibition (IC50) for 3T3 cells. The percent inhibition was calculated by using the following formula […]

**Q.** Which results are given for `Oc1ccc(C(c2c[nH]c3ccc(Br)cc23)c2c[nH]c3ccc(Br)cc23)c(O)c1`?
**A.** IC50 (β-glucoronidase; 37° C., 30 min incubation, absorbance at 405 nm, mean of three readings): 1.37 µM; % inhibition (β-glucoronidase; test concentration not given): 99.2%; IC50 [1]: 10.5 µM
